According to PubChem BioAssay AID687016 (The Scripps Research Institute Molecular Screening Center, 2013):
Only a part is listed here, and it is no random draw. Some results for these compounds are left out of this collection, so the calls shown say nothing about other tests. The source made the active and inactive calls. No stated cut-off is given here; in the data, active means inhibition above about 21%; inactive means the rest.

Protein sequences, listed by entry. Tags and fused reporters are not part of them.
UniProt Q96T88, whole entry: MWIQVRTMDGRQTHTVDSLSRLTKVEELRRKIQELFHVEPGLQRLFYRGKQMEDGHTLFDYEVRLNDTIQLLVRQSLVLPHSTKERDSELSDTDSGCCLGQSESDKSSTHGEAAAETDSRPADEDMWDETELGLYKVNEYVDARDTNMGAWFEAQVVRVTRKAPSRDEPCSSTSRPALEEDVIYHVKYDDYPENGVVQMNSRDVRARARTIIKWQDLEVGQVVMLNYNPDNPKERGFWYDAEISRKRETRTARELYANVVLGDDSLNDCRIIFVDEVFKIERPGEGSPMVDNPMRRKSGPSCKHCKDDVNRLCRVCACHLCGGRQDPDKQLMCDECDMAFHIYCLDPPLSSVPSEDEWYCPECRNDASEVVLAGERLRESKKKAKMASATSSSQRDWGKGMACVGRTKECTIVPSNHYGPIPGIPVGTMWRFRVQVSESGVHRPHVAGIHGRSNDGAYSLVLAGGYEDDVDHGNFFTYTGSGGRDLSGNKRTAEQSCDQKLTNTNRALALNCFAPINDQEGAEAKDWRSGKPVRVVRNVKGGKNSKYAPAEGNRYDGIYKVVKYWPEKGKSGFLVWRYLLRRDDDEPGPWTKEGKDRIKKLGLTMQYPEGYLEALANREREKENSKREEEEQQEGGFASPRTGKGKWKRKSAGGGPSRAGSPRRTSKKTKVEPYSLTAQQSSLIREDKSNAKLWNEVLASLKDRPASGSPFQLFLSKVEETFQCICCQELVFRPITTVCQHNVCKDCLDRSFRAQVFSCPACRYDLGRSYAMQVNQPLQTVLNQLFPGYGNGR

What follows are compounds tested against E3 ubiquitin-protein ligase UHRF1 (Homo sapiens) (UniProt Q96T88) (assay: UHRF1 methylated DNA binding inhibitors, primary screen, counter-screen for MBD2 inhibitor project, biochemical, TR-FRET, human UHRF1, single concentration (AID 687016;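 further: UHRF1 SRA domain binding a hemimethylated CpG hairpin DNA probe; 0% = median of test compound wells and 100% = reference inhibitor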)). Conditions: UHRF1 binding to methylated oligo, at 4.4 µM, active compounds read high.
O=C(OC1CN2CCC1CC2)C(CO)(c1ccccc1)c1ccccc1 (stereo unspecified) was tested, and the inhibition was inactive: 1.78%. In the case of O=C(OCCN1CCCC1)C(O)(c1ccccc1)c1ccccc1, the inhibition is reported as inactive: -1.39%. With CC(C)Oc1ccc(C(=O)NCC2(N(C)C)CCCCC2)cc1 the inhibition was inactive: 3.51%. With CN(C)c1cccc(C(=O)NCC2(N(C)C)CCCCC2)c1 the inhibition was inactive: -1.23%. In the case of C=C(C)C#CC(O)(C(=O)OC1CCN(C)CC1)c1ccccc1 (stereo unspecified), the inhibition is reported as inactive: -2.14%. In the case of COc1ccc(Br)c(C(=O)NCC2(N3CCCCC3)CCCCC2)c1, the inhibition is reported as inactive: 2.89%. With COc1cc(C(=O)NCC2(N(C)C)CCCCC2)c([N+](=O)[O-])cc1OC the inhibition was inactive: -1.99%. CN(C)C1(CNC(=O)c2ccc(Br)cc2)CCCCC1 was tested, and the inhibition was inactive: 3.37%. In the case of O=C(NCC1(N2CCCCC2)CCCCC1)c1cccc(Cl)c1, the inhibition is reported as inactive: 3.01%. For COc1ccc(Cl)cc1C(=O)NCC1(N(C)C)CCCCC1, the inhibition was inactive: 5.18%. For COc1cccc(C(=O)NCC2(N3CCCCC3)CCCCC2)c1, the inhibition was inactive: -2.92%. For CN(C)C1CCCC1OC(=O)C(O)(c1ccccc1)c1ccccc1 (stereo unspecified), the inhibition was inactive: 0.74%. In the case of CN(C)c1ccc(C(=O)NCC2(N(C)C)CCCCC2)cc1, the inhibition is reported as inactive: 0.66%. Cc1ccccc1C(=O)NCC1(N2CCCCC2)CCCCC1 was tested, and the inhibition was inactive: -0.73%. COc1ccc(C(=O)NCC2(N(C)C)CCCCC2)cc1 was tested, and the inhibition was inactive: -0.31%. O=C(NCC1(N2CCCCC2)CCCCC1)c1cccc(Br)c1 was tested, and the inhibition was inactive: -2.33%. Cc1cc(C(=O)NCC2(N3CCCCC3)CCCCC2)ccc1[N+](=O)[O-] was tested, and the inhibition was inactive: 1.11%. With CCN1CCCC(OC(=O)C2(O)c3ccccc3C=Cc3ccccc32)C1 (stereo unspecified) the inhibition was inactive: 4.43%. O=C(NCC1(N2CCCCC2)CCCCC1)c1cc(F)c(F)cc1Cl was tested, and the inhibition was inactive: -2.19%. C=CCN1CCN(CCOC(=O)C(O)(c2ccccc2)c2ccccc2)CC1 was tested, and the inhibition was inactive: -1.23%. In the case of CN1[C@@H]2CC[C@H]1CC(OC(=O)C(O)(c1ccccc1)c1ccccc1)C2 (stereo partly specified), the inhibition is reported as inactive: 2.67%. For O=C(NCC1(N2CCCCC2)CCCCC1)c1cc([N+](=O)[O-])ccc1Cl, the inhibition was inactive: 0.21%. For Cc1ccc(C(=O)NCC2(N3CCCCC3)CCCCC2)cc1, the inhibition was inactive: -0.67%. COc1cc(SC)ccc1C(=O)NCC1(N(C)C)CCCCC1 was tested, and the inhibition was inactive: 1.85%. For CCN(CC)CC(C)C(C)OC(=O)C(O)(c1ccccc1)c1ccccc1 (stereo unspecified), the inhibition was inactive: -0.83%. In the case of CC(C)N1C(=O)CC2(CCN(CCOC(=O)C(O)(c3ccccc3)c3ccccc3)CC2)C1=O, the inhibition is reported as inactive: 2.27%.
